Experiment: Solubility in water (shaken vials, UV-Vis analysis of carvedilol concentration)
Conditions: 25° C., 48 hr, expressed as mg of carvedilol free base/mL of solution
Experimental: Glass vials containing water and excess amount of carvedilol salts were shaken by a mechanical shaker at ambient conditions. Aliquots were taken out at various time-point, filtered through 0.45 μm Acrodisc GHP filter. The pH of the filtered solutions was measured and suitable dilution was performed prior to UV-Vis analysis of carvedilol concentration.

carvedilol monocitrate monohydrate [Carvedilol Mono-Citrate salt]
Aqueous Solubility: 1020 µg/mL

Source: patent US20080096951A1, “Carvedilol Monocitrate Monohydrate” (SB Pharmo Puerto Rico Inc., priority 2002, published 2008)
